Assay results: PubChem BioAssay AID493012 (Sanford-Burnham Center for Chemical Genomics, 2011)
The entries are a selection whose mix differs from that of the whole data set. Activity calls are given as the source filed them.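 How the source made its calls: active means inhibition of at least 40% at 20 µM, with no more than 30% in the related APOBEC3A deaminase screen; inactive means the rest.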

Sequences of proteins named here, by UniProt entry; tags and fusion partners are left off. A change or cut given only in a name is not applied to a line headed by its entry.
UniProt Q9HC16: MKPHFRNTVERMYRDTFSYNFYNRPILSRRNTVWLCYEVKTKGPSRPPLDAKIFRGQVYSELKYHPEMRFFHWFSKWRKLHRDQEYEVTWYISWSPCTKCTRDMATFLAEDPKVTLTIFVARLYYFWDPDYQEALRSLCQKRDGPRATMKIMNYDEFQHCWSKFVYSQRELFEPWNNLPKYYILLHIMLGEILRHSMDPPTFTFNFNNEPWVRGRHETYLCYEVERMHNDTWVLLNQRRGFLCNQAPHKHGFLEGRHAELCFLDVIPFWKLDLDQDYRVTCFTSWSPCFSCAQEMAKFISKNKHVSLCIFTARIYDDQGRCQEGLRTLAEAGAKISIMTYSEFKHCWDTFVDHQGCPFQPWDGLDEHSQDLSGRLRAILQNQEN

Target: DNA dC->dU-editing enzyme APOBEC-3G (Homo sapiens) (UniProt Q9HC16)
Test: inhibition of human A3G ssDNA deamination – biochemical, fluorescence, single-stranded DNA substrate, uHTS, primary screen (AID 493012);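 further: plate controls were DMSO wells with A3G for no effect and wells lacking A3G enzyme for full effect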
Conditions: recombinant A3G, ssDNA deamination FAM/TAMRA fluorescence; at 20 µM; stronger effect = higher value

Compound	inhibition
NS(=O)(=O)c1cccc(NC(=O)COC(=O)C(O)(c2ccccc2)c2ccccc2)c1	inactive: -3.95%
Nc1cccc([As](=O)(O)c2ccccc2)c1	inactive: -5.94%
O=P1(Nc2ncccn2)COc2ccccc2OC1	inactive: -3.53%
Clc1n[nH]nc1-c1nn[nH][15n]1	inactive: -5.93%
CC(C)(C)C(=O)NC(Sc1ncccn1)C(Cl)(Cl)Cl (centres undefined)	inactive: -0.647%
CCOP(=O)(Nc1ccc(C)cn1)OCC	inactive: -7.34%
CN(CCCl)Cc1cc(Cl)c(NC2=NCCN2)c(Cl)c1	inactive: -3.63%
O=P1(Nc2ccccn2)COc2ccccc2OC1	inactive: -6.63%
CCC1=CC2Cc3nc4ccc(Cl)cc4c(N)c3C(C1)C2 (centres undefined)	inactive: -3.83%
CCOP(=O)(NC(=NC(C)c1ccccc1)NC(C)c1ccccc1)OCC (centres undefined)	inactive: -0.987%
O=[As](O)(c1ccccc1Br)c1ccccc1Br	inactive: -3.6%
CC1(CBr)Cn2c(nc3ccccc3c2=O)S1 (centres undefined)	inactive: -2.07%
CC(C)/C=N\N=C(\N)N[N+](=O)[O-]	inactive: 0.973%
CN(C(=O)Cc1ccc(Cl)c(Cl)c1)[C@@H]1CCCC[C@H]1N1CCCC1	inactive: -7.54%
COc1ccccc1CNC(=O)COC(=O)C(O)(c1ccccc1)c1ccccc1	inactive: -5.24%
O=C(COc1ccccc1)OC1CN2CCC1CC2 (centres undefined)	inactive: -0.174%
O=C(Nc1ccncc1[N+](=O)[O-])c1ccc([N+](=O)[O-])cc1[N+](=O)[O-]	inactive: -11.2%
COP1(=S)c2c(C)nn(CCC#N)c2N=C(c2ccc(F)cc2)N1C (centres undefined)	inactive: -1.35%
CCC(C)N(CC(C)C)C(=S)SC(NC(C)=O)C(Cl)(Cl)Cl (centres undefined)	inactive: -0.286%
CCOC(=O)c1ccc(NC(=O)C(C)(CCl)SC)cc1 (centres undefined)	inactive: 0.805%
O=C(OC1CN2CCC1CC2)c1cccc([N+](=O)[O-])c1 (centres undefined)	inactive: -3.44%
CCCCOc1ccc(C(=O)NCC2(N3CCCCC3)CCCCC2)cc1OC	inactive: -7.42%

Compound	inhibition
Cc1cc(SC(NC(=O)c2ccccc2)C(Cl)(Cl)Cl)nc(C(C)C)n1 (centres undefined)	inactive: 6.96%
CCOC(=O)Nc1ccc([As](=O)(O)O)c(O)c1	inactive: 0.235%
O=P(Nc1ccccn1)(c1cccc2ccccc12)c1cccc2ccccc12	inactive: -5.89%
Cc1cc(SC(NC=O)C(Cl)(Cl)Cl)ncn1 (centres undefined)	inactive: 12%
CCOC(=O)Nc1cccc([As](=O)(O)O)c1	inactive: -4.36%
Cc1ccc2nc3c(c(C)c2c1)CC(C(Cl)Cl)S3 (centres undefined)	inactive: -1.17%
Cc1ccc(OP(=O)(Nc2ccc([N+](=O)[O-])cn2)Oc2ccc(C)cc2)cc1	inactive: -3.67%
C[As](=O)(O)c1cccc(C(=O)O)c1	inactive: -0.025%
O=[As](O)(c1ccc(O)cc1)c1ccccc1O	inactive: -5.56%
COc1cc(C(=O)NCC2(N3CCOCC3)CCCCC2)ccc1OCC(C)C	inactive: -2.58%
CC(C)NC(=O)NP(=O)(Oc1ccccc1)Oc1ccccc1	inactive: -2.44%
O=C(OC1CN2CCC1CC2)c1cccc2[nH]cnc12 (centres undefined)	inactive: -4.79%
CCN(CC)C(=S)SC(NC=O)C(Cl)(Cl)Cl (centres undefined)	inactive: 1.21%
O=[N+]([O-])c1cc([N+](=O)[O-])c(-c2ccn[nH]2)s1	inactive: -1.74%
CC(C)c1ccc(OP(=O)(Nc2ccccn2)Oc2ccccc2F)cc1 (centres undefined)	inactive: -0.661%
ClCCSc1nnc(-c2cccnc2)o1	inactive: -1.58%
COc1ccc2nc(NP(=O)(c3ccccc3)c3ccccc3)sc2c1	inactive: -2.44%
COc1cc(I)ccc1[As](=O)(O)O	inactive: -3.91%
O=C(OC1CN2CCC1CC2)C12CC3CC(CC(C3)C1)C2 (centres undefined)	inactive: -0.079%
Cc1cc(=O)[nH]c(N[N+](=O)[O-])n1	inactive: -10.5%
Cc1c2c(nc3ccccc13)SC(C(Cl)Cl)C2 (centres undefined)	inactive: -8.31%
COc1ccc(N/C(=N/P(=O)(N2CCOCC2)N2CCOCC2)N2CCOCC2)cc1	inactive: -9.51%
